Data published in PubChem BioAssay AID492956 (The Scripps Research Institute Molecular Screening Center, 2010).
The list shows a part of the results, in another mix than the full data. Active and inactive are the calls of the source.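 The calls were made as follows: active = inhibition above the mean over all tested compounds plus 3 SD (cut at about 30% in these data); inactive = the rest.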

The molecules below were run against Platelet-activating factor acetylhydrolase 2, cytoplasmic (Homo sapiens) (UniProt Q99487) (assay: inhibition of cytoplasmic PAF acetylhydrolase 2 – biochemical, fluorescence polarization, human, primary screen (AID 492956;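 also: inhibitors block probe labeling of enzyme so polarization drops; 0% = enzyme with DMSO and 100% = wells lacking PAFAH2 protein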)). Settings: recombinant PAFAH2, FP-rhodamine activity probe, at 3.39 µM, hits give high values.

| SMILES | inhibition |
| --- | --- |
| CC(C)c1ccc(OP(=O)(Nc2ccccn2)Oc2ccccc2F)cc1 (stereo not given) | inactive: 2.88% |
| COC(=O)C1(C)COP(=O)(N2CCCCCC2)OC1 (stereo not given) | inactive: 3.96% |
| Cc1ccc(OP(=O)(Nc2ccc([N+](=O)[O-])cn2)Oc2ccc(C)cc2)cc1 | inactive: 7.2% |
| Cc1ccc2nc3c(c(C)c2c1)CC(C(Cl)Cl)S3 (stereo not given) | inactive: -10.4% |
| COc1cc(C(=O)NCC2(N3CCOCC3)CCCCC2)ccc1OCC(C)C | inactive: 0.37% |
| O=[N+]([O-])c1ccc(-c2cc([N+](=O)[O-])c(O)c([N+](=O)[O-])c2)cc1 | inactive: 2.29% |
| C[As](=O)(O)c1cccc(C(=O)O)c1 | inactive: -0.27% |
| O=[As](O)(c1ccc(O)cc1)c1ccccc1O | inactive: -0.23% |
| O=[N+]([O-])c1cc(Oc2ccc([N+](=O)[O-])cc2C(F)(F)F)cc([N+](=O)[O-])c1 | inactive: 3.41% |
| COc1ccc(N/C(=N/P(=O)(N2CCOCC2)N2CCOCC2)N2CCOCC2)cc1 | inactive: -2.34% |
| O=P1(N(CCCl)CCCl)OCCCN1CCCl (stereo not given) | inactive: -5.18% |
| O=P1(N(CCCl)CCCl)Nc2ccccc2N1 | inactive: 0.41% |
| COc1cc(I)ccc1[As](=O)(O)O | inactive: 1.92% |
| COc1ccc2nc(NP(=O)(c3ccccc3)c3ccccc3)sc2c1 | inactive: 19.6% |
| Cc1c2c(nc3ccccc13)SC(C(Cl)Cl)C2 (stereo not given) | inactive: 3.92% |
| Cc1cc(=O)[nH]c(N[N+](=O)[O-])n1 | inactive: -5.35% |
| O=C(OC1CN2CCC1CC2)C12CC3CC(CC(C3)C1)C2 (stereo not given) | inactive: -4% |
| O=C(NC(Sc1ccncn1)C(Cl)(Cl)Cl)c1ccccc1 (stereo not given) | inactive: 3.61% |
| Oc1ccccc1CNc1ccccn1 | inactive: -0.9% |
| CC(C)CC(=O)NC(Sc1ccc(Cl)cc1)C(Cl)(Cl)Cl (stereo not given) | inactive: -1.61% |
| Nc1cc(N)c2nonc2c1[N+](=O)[O-] | inactive: -2.62% |
| Clc1ccc(Cl)c(NC2=NCC(CBr)S2)c1 (stereo not given) | inactive: -4% |
| CN1CCCC(OC(=O)C(c2ccccc2)c2ccccc2)C1 (stereo not given) | inactive: -3.45% |
| COc1ccccc1OP(=O)(Nc1ccc(C)cn1)Oc1ccccc1OC | inactive: 2.91% |

| SMILES | inhibition |
| --- | --- |
| Cc1ccc(N/C(=N/P(=O)(N2CCOCC2)N2CCOCC2)N2CCOCC2)cc1 | inactive: -0.69% |
| CN(C(=O)Cc1ccc(Cl)c(Cl)c1)[C@H]1CCCC[C@H]1N1CCCC1 | inactive: -4.7% |
| NC(=O)c1cc([N+](=O)[O-])cc([N+](=O)[O-])c1N | inactive: 0.11% |
| Nc1cccc2ccc([As](=O)(O)O)cc12 | inactive: 14% |
| CCN(N=Nc1nonc1N)c1nonc1N | inactive: -2.33% |
| Cc1ccc(NP(=O)(Oc2ccccc2F)Oc2ccccc2F)nc1 | inactive: -1.62% |
| CN(C(=O)Cc1ccc(Cl)c(Cl)c1)[C@H]1CCCC[C@@H]1N1CCCC1 | inactive: -3.14% |
| CCOP(=O)(Nc1ccccc1)OCC | inactive: -8.59% |
| Cc1cc(SC(NC(=O)c2ccc(F)cc2)C(Cl)(Cl)Cl)ncn1 (stereo not given) | inactive: -3.85% |
| O=P(Nc1nc2ccc(Cl)cc2s1)(c1ccccc1)c1ccccc1 | inactive: 2.43% |
| CCCC1OP(N)(=O)OCC1CC (stereo not given) | inactive: 3.18% |
| O=C(O)c1ccccc1[As](=O)(O)O | inactive: 2.51% |
| CC(=O)Nc1ccc([As](=O)(O)O)cc1 | inactive: 6.6% |
| O=C(O)CNc1ccc([As](=O)(O)O)cc1 | inactive: -0.59% |
| O=[N+]([O-])c1cccc(NC2=NCC(CBr)S2)c1 (stereo not given) | inactive: -8.74% |
| COC(=O)C1(C)COP(=O)(Nc2ccccc2)OC1 (stereo not given) | inactive: 7.62% |
| O=[N+]([O-])c1ncn(CCn2ncnc2[N+](=O)[O-])n1 | inactive: -3.26% |
| CC(C)(C)C(=O)NC(Sc1ccncn1)C(Cl)(Cl)Cl (stereo not given) | inactive: 2.51% |
| O=C(Nc1cc([As](=O)(O)O)ccc1O)c1ccccc1 | inactive: 2.55% |
| O=P1(N(CCCl)CCCl)OCCCS1 (stereo not given) | inactive: 0.15% |
| CC1CCN(C(=O)Oc2c(Cl)cc(Cl)c3cccnc23)CC1 | inactive: 2.16% |
| CN(C)C(=O)OCCc1n(C)cc[n+]1C | inactive: 7.93% |
| CC(C)=N/N=C(\N)N[N+](=O)[O-] | inactive: -11.3% |
| CCN(/C(=N/P(=O)(N1CCOCC1)N1CCOCC1)N1CCOCC1)c1ccc(OC)cc1 | inactive: -4.61% |

| SMILES | inhibition |
| --- | --- |
| C[N+]1=C2C=CC=CC=C2SC12C([N+](=O)[O-])=CC([N+](=O)[O-])=C[C-]2[N+](=O)[O-] (stereo not given) | active: 43.5% |
| Nc1ccc([As](=O)(O)c2ccc(N)cc2)cc1 | inactive: -3.88% |
| CCc1nc2c(n1)c1c(non1O)c1c2no[n+]1[O-] | inactive: 13.9% |
| O=[N+]([O-])c1cc([N+](=O)[O-])c(CCNc2ccccc2)c([N+](=O)[O-])c1 | inactive: 11.9% |
| Cc1ccc(NP(=O)(Oc2ccccc2)Oc2ccccc2)nc1 | inactive: 10.8% |
| O=[N+]([O-])c1cccc2n[nH]nc12 | inactive: -3.87% |
| CC(=O)N1C2C3N(C(C)=O)C1C1N(C(C)=O)C(C(N1C(C)=O)N3C(C)=O)N2C(C)=O | inactive: -1.52% |
| COc1ccc(C2=NCC(CBr)S2)cc1 (stereo not given) | inactive: 2.81% |
| c1nnnn1CCn1cnnn1 | inactive: 2.88% |
| CC(C)C(=O)NC(Sc1ccccc1)C(Cl)(Cl)Cl (stereo not given) | inactive: -1.3% |
| O=P(Nc1nccs1)(c1ccccc1)c1ccccc1 | inactive: 0.42% |
| O=C(OC1CN2CCC1CC2)c1cccc(Cl)c1 (stereo not given) | inactive: -2.48% |
| Nc1ccc([As](=O)(O)c2ccc([N+](=O)[O-])cc2)cc1 | inactive: -1.49% |
| C(Cc1nn[nH]n1)Cc1nn[nH]n1 | inactive: 6.36% |
| O=[As](O)(c1ccccc1)c1ccc(O)cc1 | inactive: 2.01% |
| O=[N+]([O-])c1ccc(O)c(/C=N/Nc2ccc([N+](=O)[O-])cc2[N+](=O)[O-])c1 | active: 36.5% |
| O=[N+]([O-])c1ncn(CCn2cnc([N+](=O)[O-])n2)n1 | inactive: -6.14% |
| CC(=O)NC(SC(=S)N(C)C)C(Cl)(Cl)Cl (stereo not given) | inactive: -2.08% |
| C[C@H]1OP(=O)(Oc2ccccc2)[C@H](O)[C@H](O)[C@H]1N=[N+]=[N-] (stereo not given in full) | inactive: -0.03% |
| O=P(Nc1nc2ccccc2s1)(c1ccccc1)c1ccccc1 | inactive: 4.98% |
| O=P(Nc1ccccn1)(c1ccc(Br)cc1)c1ccc(Br)cc1 | inactive: 0.28% |
| CN(C)C1(CNC(=O)c2ccc(Cl)c(S(N)(=O)=O)c2)CCCCC1 | inactive: 4.77% |
| COc1ccc(N)c([N+](=O)[O-])c1[N+](=O)[O-] | inactive: 10.1% |
| CN(C)C(=O)Oc1noc2ccccc12 | inactive: 8.49% |

| SMILES | inhibition |
| --- | --- |
| O=c1c2cc([N+](=O)[O-])ccc2[nH]c2c([N+](=O)[O-])cc([N+](=O)[O-])cc12 | inactive: 10.1% |
| Cc1ccccc1OP(=O)(Nc1ccccn1)Oc1ccccc1C | inactive: 10.4% |
| CC(NC(=O)COC(=O)C(O)(c1ccccc1)c1ccccc1)c1ccccc1 (stereo not given) | inactive: 5.45% |
| CCC(=O)N1C2C3N(C(=O)CC)C1C1N(C(=O)CC)C(C(N1C(=O)CC)N3C(=O)CC)N2C(=O)CC | inactive: -4.4% |
| O=C(OC1CN2CCC1CC2)c1ccccc1 (stereo not given) | inactive: 4.56% |
| Cc1ccc(OP(=O)(Nc2ccccn2)Oc2ccc(C)cc2)cc1 | inactive: 1.15% |
| CC(=O)NC(SC(=S)N(CC(C)C)CC(C)C)C(Cl)(Cl)Cl (stereo not given) | inactive: 0.7% |
| COC(=O)c1cc2c(s1)N=C(c1ccccc1)N(C)P2(=O)N1CCOCC1 (stereo not given) | inactive: 0.36% |
| O=P1(N(CCCl)CCCl)OCCC2CCCCN21 (stereo not given) | inactive: -3.66% |
| CCNC(=S)/N=C(\N)N[N+](=O)[O-] | inactive: -1.79% |
| O=C(NC1CCS(=O)(=O)C1)NP(=S)(Oc1ccccc1)Oc1ccccc1 (stereo not given) | inactive: 8.43% |
| CC(=O)Nc1ccc(Oc2c([N+](=O)[O-])cc([N+](=O)[O-])cc2[N+](=O)[O-])cc1 | inactive: 0.07% |
| CC(=O)Nc1ccc([As](=O)(O)O)c(O)c1 | inactive: 2.01% |
| C[C@@H]1C=CCP(=O)(Oc2ccccc2)O1 (stereo not given in full) | inactive: 4.13% |
| C[C@H]1OP(=O)(Oc2ccccc2)C[C@@H]2O[C@@H]21 (stereo not given in full) | inactive: -1.81% |
| Cc1ccccc1CN(C)C(=O)COC(=O)C(O)(c1ccccc1)c1ccccc1 | inactive: -1.93% |
| COC(=O)C1(C)COP(=O)(NCc2ccccc2)OC1 (stereo not given) | inactive: 1.36% |
| N#C/C(=C\c1ccc(N(CCBr)CCBr)cc1)C(N)=O | inactive: 3.77% |
| CC(=O)c1ccc(N2CC2c2ccncc2)cc1 (stereo not given) | inactive: -6.74% |
| CC(C)(C)C(=O)NC(Sc1ccccc1)C(Cl)(Cl)Cl (stereo not given) | inactive: 0.89% |
| CCc1cc(O)c([N+](=O)[O-])c(C)c1[N+](=O)[O-] | inactive: -1.47% |
| CCOc1ccc(C2=NCC(CBr)S2)cc1 (stereo not given) | inactive: -1.03% |
| O=P1(Nc2nc3ccc(Cl)cc3s2)COc2ccccc2O1 (stereo not given) | inactive: 1.47% |
